# Source: patent US20110020346A1 (Genentech, published 2011)
# The chains behind the UniProt entries cited, without tags or fusion partners. A line that says so, or that is headed by a name, gives the form on record, which may keep a tag or linker.
# UniProt Q00731, other isoform, or with tags, fused parts or gaps limits assumed: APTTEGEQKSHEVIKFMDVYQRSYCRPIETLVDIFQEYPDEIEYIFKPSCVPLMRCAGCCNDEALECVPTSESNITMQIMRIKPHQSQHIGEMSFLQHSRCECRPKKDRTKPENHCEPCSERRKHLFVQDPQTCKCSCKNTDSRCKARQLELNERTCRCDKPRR
# UniProt P15692, other isoform, or with tags, fused parts or gaps limits assumed: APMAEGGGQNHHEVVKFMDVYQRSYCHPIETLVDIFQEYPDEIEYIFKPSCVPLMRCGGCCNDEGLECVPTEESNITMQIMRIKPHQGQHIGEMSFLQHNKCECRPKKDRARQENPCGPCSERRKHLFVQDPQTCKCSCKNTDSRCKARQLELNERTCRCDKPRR
# What was measured:
# murine VEGF (mVEGF) [1] = biological target: T1, murine VEGF (mVEGF) (mouse, UniProt Q00731-2 27-190, limits assumed); assay: Kd from koff/kon
# T1 construct: also called mouse VEGF
# human VEGF (hVEGF) = biological target: T2, human VEGF (hVEGF) (human, UniProt P15692-4 27-191, limits assumed); assay: SPR (BIAcore), FIG. 8
# T2 construct: Used wherever an assay says only hVEGF
# murine VEGF (mVEGF) [2] = biological target: T1, murine VEGF (mVEGF); assay: SPR (BIAcore), FIG. 8
fold improvement in affinity (Kd) over G6 (murine VEGF (mVEGF) [1]) [fold],fold better Kd than G6 (human VEGF (hVEGF)) [fold],fold better Kd than G6 (murine VEGF (mVEGF) [2]) [fold],Binder
40 to 60,≥ 7,≥ 7,"G6-23 Fab (Fab, V domains shown, 30-33; also called FabG6-23; Fab-G6-23) VH: EVQLVESGGGLVQPGGSLRLSCAASGFTISDYWIHWVRQAPGKGLEWVAGITPAGGYTYYADSVKGRFTISADTSKNTAYLQMNSLRAEDTAVYYCARFVFFLPYAMDYWGQGTLVTVSS VL: DIQMTQSPSSLSASVGDRVTITCRASQDVSTAVAWYQQKPGKAPKLLIYSASFLYSGVPSRFSGSGSGTDFTLTISSLQPEDFATYYCKQGYANPWTFGQGTKVEIKR"
40 to 60,–,–,"G6-31 Fab (Fab, V domains shown, also called Fab-G6-31) VH: EVQLVESGGGLVQPGGSLRLSCAASGFTISDYWIHWVRQAPGKGLEWVAGITPAGGYTYYADSVKGRFTISADTSKNTAYLQMNSLRAEDTAVYYCARFVFFLPYAMDYWGQGTLVTVSS VL: DIQMTQSPSSLSASVGDRVTITCRASQDVSTAVAWYQQKPGKAPKLLIYSASFLYSGVPSRFSGSGSGTDFTLTISSLQPEDFATYYCQQGYGNPFTFGQGTKVEIKR"
